From patent US5741689, “Methods to inhibit serine kinase activity and to alter intersubunit binding activity of phosphatidylinositol 3-kinase, and serine kinase active sequence of the same” (Ludwig Institute for Cancer Research, dated 1998)

Assays:
[1] = target: p85α subunit of PI3-kinase (bovine, full length, recombinant) (bovine, UniProt P23727); experiment: GST-p110 fusion pull-down from Sf9 lysate expressing p85α
[2] = target: p85β subunit of PI3-kinase (bovine, full length, recombinant) (bovine, UniProt P23726); experiment: GST-p110 fusion pull-down from Sf9 lysate expressing p85β

binding result [1]: no binding
binding result [2]: no binding
B1: GST-p110 fusion protein p110-2 ([…]) (other)
chain: MPVCEFDMVKDPEVQDFRRNILNVCKEAVDLRDLNSPH[letters of about 150 residues left out]PYMNGETSTKSLWVINSALRIKILCATYVNVNIRDIDKIYVRTGIYHGGEPLCDNVNTQRVPCSNPRWNEWLNYDIYIPDLPRAARLCLSICSVKGRKGAKEEHCPLAWGNINLFDYTDTLVSGKMALNLWPVPHGLEDLLNP
